Laboratory results published in PubChem BioAssay AID720621 (The Scripps Research Institute Molecular Screening Center, 2013).
The entries are a selection whose mix differs from that of the whole data set. Calls of active or inactive are those of the source.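 How the source made its calls: active means inhibition above the mean of test compounds lying between the control limits plus 3 SD of those (cut at about 14% in these data); inactive means the rest.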

Sequences of proteins named here, by UniProt entry; tags and fusion partners are left off. A change or cut given only in a name is not applied to a line headed by its entry.
UniProt P02675: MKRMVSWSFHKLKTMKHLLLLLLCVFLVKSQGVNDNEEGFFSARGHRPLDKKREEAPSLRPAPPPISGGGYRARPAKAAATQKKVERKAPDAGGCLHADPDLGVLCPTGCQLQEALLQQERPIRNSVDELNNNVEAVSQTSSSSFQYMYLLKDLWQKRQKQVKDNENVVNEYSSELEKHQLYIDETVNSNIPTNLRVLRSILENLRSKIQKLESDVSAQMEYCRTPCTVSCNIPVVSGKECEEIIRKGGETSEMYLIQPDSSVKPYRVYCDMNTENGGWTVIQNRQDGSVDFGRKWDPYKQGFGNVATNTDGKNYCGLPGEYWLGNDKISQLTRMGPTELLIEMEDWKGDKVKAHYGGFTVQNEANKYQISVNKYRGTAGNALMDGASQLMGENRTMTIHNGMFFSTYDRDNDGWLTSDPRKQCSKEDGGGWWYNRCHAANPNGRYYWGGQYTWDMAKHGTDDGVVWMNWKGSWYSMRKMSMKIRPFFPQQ

Target: Fibrinogen beta chain (Homo sapiens) (UniProt P02675)
Experiment: fibrin DD(E) probe displacement, second cyclic peptide – biochemical, fluorescence polarization, human fibrin, counter-screen for fibrin DD(E)-Tn6 binding project, confirmation (AID 720621);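 further: 0% = median of compound wells and 100% = wells with Aha-Tn7 blocking peptide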
Conditions: TRITC-Tn6 fluorescence polarization displacement, at 8.3 µM, stronger effect = higher value, 0% = median of compound wells, not DMSO

Nc1cccc2c([As](=O)(O)O)cccc12
inhibition: inactive: 3.01%
